The assay has as its system enterovirus D68. To be noted: time 2.0 hrs.

In turn, `CCC[C@H](NC(=O)[C@@H]1[C@H]2CCC[C@H]2CN1C(=O)[C@@H](NC(=O)[C@@H](NC(=O)c1cnccn1)C1CCCCC1)C(C)(C)C)C(=O)C(=O)NC1CC1` yielded a Kinact of 0.001 s⁻¹.

The values above are taken from ChEMBL document CHEMBL5370639, “Structure-Based Lead Optimization of Enterovirus D68 2A Protease Inhibitors” (J Med Chem, 2023).
